Results reported in US20250333518A1 (ROCK BIOMEDICAL, published 2025).

Molecular target: tumor necrosis factor-alpha (TNFα) (UniProt P01375)
Assay: ELISA, target binding

| Substance | EC50 |
| --- | --- |
| Adalimumab, commercially available product (Humira®) (antibody; other documents disagree on this pair) | 0.213 nM |
| Adalimumab (Humira®) population produced by the SAII A3 cells according to the present disclosure (antibody; other documents disagree on this pair) | 0.373 nM |
